Laboratory results reported in ChEMBL document CHEMBL1131130, “Structure-based design of beta-lactamase inhibitors. 1. Synthesis and evaluation of bridged monobactams” (J Med Chem, 1998).

By UniProt entry, the sequences of proteins in these tests, tags left out. Where a name states a change or a piece, a line headed by the entry shows the natural chain unless it says otherwise.
UniProt P24735: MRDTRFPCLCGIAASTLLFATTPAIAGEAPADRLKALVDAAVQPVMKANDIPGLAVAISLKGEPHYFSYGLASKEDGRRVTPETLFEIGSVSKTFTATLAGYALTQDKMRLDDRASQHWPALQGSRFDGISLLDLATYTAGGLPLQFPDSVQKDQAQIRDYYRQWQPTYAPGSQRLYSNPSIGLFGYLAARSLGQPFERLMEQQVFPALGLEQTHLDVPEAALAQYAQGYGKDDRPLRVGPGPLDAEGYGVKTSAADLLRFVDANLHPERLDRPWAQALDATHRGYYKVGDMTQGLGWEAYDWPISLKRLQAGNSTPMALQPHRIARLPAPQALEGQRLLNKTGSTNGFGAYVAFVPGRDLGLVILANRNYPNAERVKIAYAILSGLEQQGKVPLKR

Target: Beta-lactamase (Pseudomonas aeruginosa (strain ATCC 15692 / PAO1 / 1C / PRS 101 / LMG12228), UniProt P24735)
Assay: Inhibition of Pseudomonas aeruginosa 18SH Beta-lactamase.

O=C(Nc1ccccc1)N1CC[C@@H]2[C@H]1C(=O)N2S(=O)(=O)[O-].[Na+]
IC50: 420 nM
